{
  "source": "patent US12186354B2",
  "about": "“Lespedeza capitata extract for use in the field of hair care” (priority 2018, dated 2025)",
  "system": "JAK1/2-STAT3 pathway",
  "assay": "IL-6-induced STAT3 phosphorylation in follicular keratinocytes of the outer root sheath (ORS)",
  "format": "cell-based, human",
  "conditions": "5 μM, 1 h pre-treatment, IL-6 100 ng/ml 15 minutes",
  "description": "The goal of this example is to confirm the inhibitor activity of an extract of Lespedeza capitata on the JAK-STAT signalling pathway in a cell model, follicular keratinocytes of the outer epithelial sheath of the hair follicle (outer root sheath (ORS) model). In this model, interleukin IL-6 is used to activate the JAK1/2-STAT3 pathway by activation of IL-6 and GP130 receptors which are both expressed in this hair follicle epithelial sheath. II-6 is a cytokine that acts as a hair growth cycle inhibitor. Its overexpression in a transgenic mouse model leads to delayed hair growth. Moreover, in androgenetic alopecia, IL-6 would be overexpressed in dermal papilla cells under the influence of androgens (Kwack et al., 2012, J Invest Dermatology 132(1): 43-9). It has also been reported that IL-6 delays hair follicle growth in humans.\nThe study is performed on follicular keratinocytes of the outer epithelial sheath of the hair follicle (outer root sheath (ORS) model). The keratinocytes are cultured in 96-well plates in an appropriate medium (CnT-PR from CelINTech). Twenty-four hours later, the cells are washed with an alkaline phosphate buffer (PBS) and the medium is exchanged for CnT-PR-H (standard maintenance medium for primary human keratinocytes). […]. The Lespedeza capitata tested is an extract prepared according to Example 5 of the present invention. […]",
  "data": [
    {"smiles": "C[C@@H]1CCN(C(=O)CC#N)C[C@@H]1N(C)c1ncnc2[nH]ccc12", "note": "[Tofacitinib, tofacitinib]", "values": [
      {"measurement": "% of STAT phosphorylated, Mean", "value": 99, "unit": "%"}
    ]}
  ]
}
